# scFv variants of Ab-14 (heavy chain) against a SARS-CoV-2 spike peptide

Values reported by Li et al. 2023, doi:10.1038/s41467-023-39022-2 (FLAb copy).

All variants were tested on one target, the spike HR2 peptide PDVDLGDISGINAS (SARS-CoV-2).

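The parent was found by panning a naive human phage display library on the peptide. The variants were designed computationally from a first round of random CDR variants and then made and measured. Several design methods are mixed in this list. The assay is AlphaSeq: two haploid yeast populations carry antibody and antigen on their surface. Mating (16 h, 30 °C) was followed by selection of diploids and sequencing of their barcodes. Scores were corrected for input abundance and mapped to Kd with protein pairs of known affinity run in the same pool. There are six technical replicates.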

Parent scFv Ab-14: VH joined to VL by three GGGGS repeats. Changes lie in the heavy chain CDRs alone.
VH: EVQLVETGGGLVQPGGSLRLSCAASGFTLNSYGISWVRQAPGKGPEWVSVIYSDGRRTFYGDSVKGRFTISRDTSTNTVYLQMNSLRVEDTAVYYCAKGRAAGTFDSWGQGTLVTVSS
VL: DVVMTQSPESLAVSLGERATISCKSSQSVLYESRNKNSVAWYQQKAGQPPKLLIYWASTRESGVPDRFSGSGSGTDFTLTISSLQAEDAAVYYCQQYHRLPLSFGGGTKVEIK

Each variant is given by its three heavy chain CDRs, as the data file delimits them; those of the parent are GFTLNSYGIS, VIYSDGRRTFYGDSVK, GRAAGTFDS. The Kd shown is the geometric mean over detected replicates; a lower Kd is a better binder. An entry "no signal" has no value in the source: the pair was not observed among the diploids in any replicate. This suggests poor binding but is not conclusive. Of ten entries with the parent sequence, four were seen in most replicates (averages 2.2 nM to 240 nM), three in one and three in none, so single entries are noisy. Values of this round are not directly comparable with the first-round values of the same sequences. The authors averaged sequences with at least three values out of six and counted those with two or fewer as poor binders. Three control strains display no target. For all heavy chain designs, 1% of the pairings with them gave a signal, with a median of 120 nM and one signal in twenty below 7.0 nM, so weak values seen in few replicates may be background. Also given: how often the same scFv was detected with the empty control strains.

CDR-H1,CDR-H2,CDR-H3,apparent Kd,detected,control signals
GFDLDEYGIS,VIYADGKRTAYTDSVK,GTNAGTFDV,420 pM,6 of 6,0 of 18
GFKLEEYGIS,VIYADGQRVAYVDKVK,GQHAGMFDQ,no signal,0 of 6,0 of 18
GFSLNSYGIS,VIYSDGRRTFYGDSVK,GETAGTFDL,610 pM,5 of 6,0 of 18
GFNLDEYGIS,VIYADGRRTFYSDNVK,GENGGTFDI,4.8 nM,6 of 6,0 of 18
GMDLNSYGIS,VIYSDGRRTFYGDSVK,GRTAGTFDS,3.8 nM,6 of 6,0 of 18
GFNLNEYGIS,VIYADGLRTQYIDSVK,GNAFIFGLD,no signal,0 of 6,1 of 18
GFTLNSYGIS,VIYSDGRRTFYADSVK,GKAAGTFDT,15 nM,6 of 6,1 of 18
GFWLNEYGIS,VIYSDGRRTFYADSVK,GRMAGTFDS,5.4 nM,6 of 6,0 of 18
GFDLNEYGIS,VIYADGLRTSYADSVK,GQLAGTFDI,180 pM,6 of 6,0 of 18
GFNLDEYGIS,VIYADGMRTAFGDNVK,GTVFGDFVF,no signal,0 of 6,0 of 18
GKDLEEYGIS,VIYADGFRTAYKNQVK,GSGVIDIMV,no signal,0 of 6,0 of 18
GETLNSYGIS,VIYADGRRTFYNPSVK,GRNAGTFDS,550 pM,6 of 6,0 of 18
GFNLNSYGIS,VIYSDGRRTFYGDSVK,GQTAGTFDT,3.2 nM,6 of 6,1 of 18
GFDLNEYGIS,VIYADGMRTAYVDSVK,GNNAGTFDI,670 pM,6 of 6,0 of 18
GFDINEYGVS,VIYADGMRSYYADKVK,GSEGALFDV,no signal,0 of 6,0 of 18
GFDLGEYGIS,VIYADGVRQSYVDKVK,GFNGVDLLV,no signal,0 of 6,0 of 18
GFDLLEYGIS,VIYADGMRVAYAKDVK,GMEGQLVVD,no signal,0 of 6,0 of 18
CFTLESYGIS,VIYADGRRTFYGDSVK,GRAAGTFDS,no signal,0 of 6,0 of 18
GFDLNEYGIS,VIYADGRRTAYSDSVK,GTNGGTFDM,840 pM,6 of 6,0 of 18
GMDINEYGVS,VIYADGNRKQYSDNVK,GIEGGNFVI,no signal,0 of 6,0 of 18
GFDLNSYGIS,VIYSDGRRTFYGDSVK,GWTAGTFDA,1.2 nM,6 of 6,0 of 18
GFTLNDYGIS,VIYSDGRRTFYIDSVK,GRLAGTFDS,13 nM,6 of 6,0 of 18
GFDLNEYGIS,VIYADGMRSAYADSVK,GNVAGTFDT,270 pM,6 of 6,1 of 18
FFDLQSYGIS,VIYSDGRRTFYGDSVK,GRAAYWFAS,57 nM,3 of 6,0 of 18
GFGLNEYGIS,VIYSDGRRTFYHDSVK,GKAAGTFDS,850 pM,6 of 6,1 of 18
GFVLNSYGIS,VIYSDGRRTFYADSVK,GRQAGTFDS,no signal,0 of 6,0 of 18
GFSLNNYGIS,VIYSDGRRTFYGDSVK,GQAAGTFDT,7.6 nM,4 of 6,0 of 18
GFSLNNYGIS,VIYSDGRRTFYTDSVK,GRQAGTFDS,2.5 nM,6 of 6,0 of 18
GFELNSYGIS,VIYSDGKRTFYGDSVK,GQAAGTFDD,52 nM,5 of 6,0 of 18
GGDLNEYGIS,VIYADGVRKNYDDSVK,GQTGLVLYI,no signal,0 of 6,0 of 18
GFTLNSYGIS,VSYSDGRRTFYGDSVK,GRAAGTFDS,130 nM,1 of 6,0 of 18
GFTLNSYGIS,VIYADGRRTFYGDSVK,GRAAGTFKK,no signal,0 of 6,0 of 18
GFSLNTYGIS,VIYSDGRRTFYIDSVK,GTAAGTFDS,3.3 nM,6 of 6,1 of 18
GFDLNEYGIS,VIYADGVRTFYADSVK,GNQAGTFDV,320 pM,6 of 6,0 of 18
GFDLNEYGIS,VIYADGKRTFYSDSVK,GNIGGTFDV,860 pM,6 of 6,1 of 18
GFTLNEYGIS,VIYSDGRRTFYGDSVK,GRAAETFDQ,910 nM,1 of 6,0 of 18
GFDLEEYGIS,VIYADGRRTFYSDSVK,GENAGTFDI,630 pM,6 of 6,0 of 18
GFSLNSYGIS,VIYSDGRRTFYCDSVK,GEAAGTFDS,8.9 nM,6 of 6,1 of 18
NFDLNSYGIS,VIYSDGRRTFYGDSVK,GRTAGTFDS,29 nM,5 of 6,0 of 18
GFDLNEYGIS,VIYADGMRTAYADSVK,GKVAGTFDL,810 pM,6 of 6,2 of 18
GFTLNLYGIS,VIYSDGRRTFYSDSVK,GRAAGFFDS,96 nM,5 of 6,2 of 18
KFELNKYGIS,VIYSDGRRTFYGDSVK,GRTAGTFDS,380 nM,1 of 6,0 of 18
GFTLNSYGIS,VIYSDGQRQFYLDSVR,GRAAGTFDS,no signal,0 of 6,0 of 18
GFSLNSYGIS,VIYSDGRRTFYGDDVK,GEAAGTFDS,5.5 nM,5 of 6,0 of 18
GFDLNEYGIS,VIYADGRRTFYADSVK,GQNAGTFTL,1.4 nM,6 of 6,1 of 18
GFNLNEYGIS,VIYADGMRTFYTDSVK,GENAGTFDE,670 pM,6 of 6,0 of 18
GFDLNEYGIS,VIYADGKRTAYSDSVK,GENAGTFDM,690 pM,6 of 6,0 of 18
GFGLDEYGIS,VIYADGMRANYATNVK,GYQAGVIST,180 nM,1 of 6,0 of 18
GFTLNEYGIS,VIYSDGRRTFYTDSVK,GRFAGTFDN,4.9 nM,6 of 6,0 of 18
GFDLNEYGIS,VIYADGSRTAYADDVK,GENAGTFDV,1.1 nM,6 of 6,1 of 18
GFTLNSYGIS,VIYSDGRRTFYGDSVK,GAAAGTFDG,20 nM,6 of 6,0 of 18
GKDLNEQGIS,VIYADGTRTAYANTVK,GEIAGIFPI,31 µM,1 of 6,0 of 18
GFTLNSYGIS,VIYSDGRRTFYGDKVK,GYAGGTFDS,no signal,0 of 6,0 of 18

9 of these entries, quoted again:

CDR-H1,CDR-H2,CDR-H3,apparent Kd,detected,control signals
GFTLNLYGIS,VIYSDGRRTFYSDSVK,GRAAGFFDS,96 nM,5 of 6,2 of 18
GFGLNEYGIS,VIYSDGRRTFYHDSVK,GKAAGTFDS,850 pM,6 of 6,1 of 18
GFSLNSYGIS,VIYSDGRRTFYGDDVK,GEAAGTFDS,5.5 nM,5 of 6,0 of 18
GFNLDEYGIS,VIYADGMRTAFGDNVK,GTVFGDFVF,no signal,0 of 6,0 of 18
GFDLNEYGIS,VIYADGLRTSYADSVK,GQLAGTFDI,180 pM,6 of 6,0 of 18
GFDLNEYGIS,VIYADGMRTAYVDSVK,GNNAGTFDI,670 pM,6 of 6,0 of 18
GFDLNEYGIS,VIYADGKRTAYSDSVK,GENAGTFDM,690 pM,6 of 6,0 of 18
GFDLNEYGIS,VIYADGVRTFYADSVK,GNQAGTFDV,320 pM,6 of 6,0 of 18
GFTLNSYGIS,VIYADGRRTFYGDSVK,GRAAGTFKK,no signal,0 of 6,0 of 18